The text below walks through data of publication PMC3068608 (Journal of medicinal chemistry, 2011).

By UniProt entry, the sequences of proteins in these tests, tags left out.
UniProt P35372, whole entry: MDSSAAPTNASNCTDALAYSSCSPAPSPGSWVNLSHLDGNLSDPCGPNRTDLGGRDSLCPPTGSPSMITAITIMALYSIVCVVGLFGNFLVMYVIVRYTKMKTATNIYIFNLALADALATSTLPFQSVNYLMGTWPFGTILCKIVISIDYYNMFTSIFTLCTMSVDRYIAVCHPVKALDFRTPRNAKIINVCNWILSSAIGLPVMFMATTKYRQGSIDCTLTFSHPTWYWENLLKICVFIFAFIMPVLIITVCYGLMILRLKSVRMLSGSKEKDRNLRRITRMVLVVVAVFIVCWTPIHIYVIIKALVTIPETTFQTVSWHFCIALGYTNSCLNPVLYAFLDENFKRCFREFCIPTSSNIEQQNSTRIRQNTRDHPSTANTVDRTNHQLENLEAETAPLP

This assay concerns the target human μ opioid receptor (Homo sapiens, UniProt P35372). Briefly: [35S]GTPγS binding mediated by the μ opioid receptor, CHO membranes. The class given is biochemical. Conditions: read-out: Emax (% maximal stimulation). (In general: GTPγS resists hydrolysis and so accumulates on activated G proteins.)

Turning to `CCNc1nc2cc3c(cc2s1)C[C@@H]1[C@@H]2CCCC[C@]32CCN1CC1CC1` [19a, N′-Ethyl-aminothiazolo[5,4-b]-N-cyclopropylmethylmorphinan], the Emax (usually the maximal effect, on the per cent scale that the assay sets) came out at 83 ± 2.5%. Consider `CNc1nc2cc3c(cc2s1)C[C@@H]1[C@@H]2CCCC[C@]32CCN1CCCF` [13c, N′-Methyl-aminothiazolo[5,4-b]-N-fluoropropylmorphinan], for which the Emax is 100 ± 5.3%.
